## Reported melting point values for industrial, environmental and drug-like chemicals

Values as listed in the OPERA 2.9 repository of K. Mansouri.

The melting point is given in degrees Celsius.

{"smiles": "CC(C)(C)c1ccc(C=CC(=O)O)cc1", "name": "4-tert-Butylcinnamic acid", "mp (°C)": "207"}
{"smiles": "Cc1cc(O[C@@H]2O[C@H](CO)[C@@H](O)[C@H](O)[C@H]2O)cc2c1O[C@](C)(CCC[C@H](C)CCC[C@H](C)CCCC(C)C)CC2", "mp (°C)": "60.7"}
{"smiles": "NC(=[NH2+])SCC[NH3+].[Br-].[Br-]", "name": "S-2-Aminoethylthiouronium bromide hydrobromide", "mp (°C)": "193"}
{"smiles": "COc1ccc(-c2noc(CCCC(=O)O)n2)cc1", "name": "4-[3-(4-methoxyphenyl)-1,2,4-oxadiazol-5-yl]butanoic acid", "mp (°C)": "110"}
{"smiles": "CCCCCCCCCCCC(=O)N[C@@H](CCC(=O)NCCCC)C(=O)NCCCC", "mp (°C)": "158.8"}
{"smiles": "CC(Cl)C(=O)Nc1cccc([N+](=O)[O-])c1", "stereo": "stereo not drawn", "name": "2-chloro-N-(3-nitrophenyl)propanamide", "mp (°C)": "116"}
{"smiles": "N#Cc1ccc(N2CCOCC2)nc1", "name": "6-morpholinonicotinonitrile", "mp (°C)": "124"}
{"smiles": "CCN(CC[N+](C)(C)C)c1ccc(/N=N/c2nc(-c3ccccc3)ns2)c(C)c1.COS(=O)(=O)[O-]", "mp (°C)": "129"}
{"smiles": "COc1ccc(CC2CC2)cc1", "name": "1-(Cyclopropylmethyl)-4-methoxybenzene", "mp (°C)": "-23.15"}
{"smiles": "CN1CCN(CCC(=O)NN)CC1", "name": "3-(4-methylpiperazin-1-yl)propanehydrazide", "mp (°C)": "88"}
{"smiles": "O=C(O)CCn1c(=O)oc2cc(Cl)ccc21", "name": "3-(6-chloro-2-oxo-1,3-benzoxazol-3(2H)-yl)propanoic acid", "mp (°C)": "161"}
{"smiles": "CCOC(=O)C(C)(C)c1ccc(C(=O)C2CC2)cc1", "name": "Ethyl 2-[4-(cyclopropanecarbonyl)phenyl]-2-methylpropanoate", "mp (°C)": "57.2"}
{"smiles": "COC(=O)c1ccc(I)cc1S(=O)(=O)[N-]C(=O)Nc1nc(C)nc(OC)n1.[Na+]", "name": "Iodosulfuron methyl ester sodium salt", "mp (°C)": "150"}
{"smiles": "COc1ccc(NCC(=O)NN)cc1", "name": "2-(4-methoxyanilino)acetohydrazide", "mp (°C)": "96"}
{"smiles": "CC(=O)C=CC1C(C)=CCC(C)C1(C)C", "stereo": "stereo not drawn", "name": "alpha-Irone", "mp (°C)": "-12.5"}
{"smiles": "CCCOc1cc(C=O)ccc1OC", "name": "4-Methoxy-3-propoxybenzaldehyde", "mp (°C)": "36"}
{"smiles": "CC1=C(C=O)C(C)(C)CC=C1", "name": "Safranal", "mp (°C)": "2.5"}
{"smiles": "CCCCCCCCCCCC[N+](C)(C)CC(O)CS(=O)(=O)[O-]", "stereo": "stereo not drawn", "name": "Dodecyl(2-hydroxy-3-sulphonatopropyl)dimethylammonium", "mp (°C)": "307.6"}
{"smiles": "COC(=O)c1ccc(C=CC(=O)O)cc1", "name": "Benzoic acid, 4-(2-carboxyethenyl)-, 1-methyl ester", "mp (°C)": "237"}
{"smiles": "Cc1nc(=O)c2cc(Br)ccc2[nH]1", "name": "6-Bromo-2-methylquinazolin-4(3H)-one", "mp (°C)": "220"}
{"smiles": "CN(C)S(=O)(=O)c1ccc(Cl)c(N)c1", "name": "3-Amino-4-chloro-N,N-dimethylbenzene-1-sulfonamide", "mp (°C)": "120"}
{"smiles": "O=C(O)c1ccc2c(=O)n3c(nc2c1)CCC3", "mp (°C)": "355"}
{"smiles": "O=C1Cc2cc(CCN3CCN(c4nsc5ccccc45)CC3)c(Cl)cc2N1", "name": "Ziprasidone", "mp (°C)": "288"}
{"smiles": "COc1c(F)cc(N)cc1F", "name": "3,5-Difluoro-4-methoxyaniline", "mp (°C)": "78.5"}
{"smiles": "ClCc1cc(Cl)cc2c1OC(c1ccccc1)OC2", "stereo": "stereo not drawn", "name": "6-Chloro-8-(chloromethyl)-2-phenyl-2H,4H-1,3-benzodioxine", "mp (°C)": "112"}
{"smiles": "O=C(O)c1scnc1Cl", "name": "4-Chloro-1,3-thiazole-5-carboxylic acid", "mp (°C)": "246"}
{"smiles": "Cc1cccc(C)c1NC(=O)CN1CCN(CCCC(c2ccc(F)cc2)c2ccc(F)cc2)CC1", "name": "Lidoflazine", "mp (°C)": "160"}
{"smiles": "Cc1nc2ccc(N)cc2o1", "name": "2-Methyl-1,3-benzoxazol-6-amine", "mp (°C)": "130"}
{"smiles": "CC1(C)CC(NC(=O)c2cccc(C(=O)NC3CC(C)(C)NC(C)(C)C3)c2)CC(C)(C)N1", "name": "N,N'-Bis(2,2,6,6-tetramethyl-4-piperidyl)isophthalamide", "mp (°C)": "275.5"}
{"smiles": "CC(=O)c1ccc2cc(O)c(O)cc2c1", "name": "1-(6,7-Dihydroxynaphthalen-2-yl)ethan-1-one", "mp (°C)": "170"}
{"smiles": "CCCCCCCCC(=O)N(C)C[C@H](O)[C@@H](O)[C@H](O)[C@H](O)CO", "name": "1-Deoxy-1-[methyl(nonanoyl)amino]hexitol", "mp (°C)": "89.4"}
{"smiles": "O=S(=O)(N(CCO)CCO)C(F)(F)C(F)(F)C(F)(F)C(F)(F)F", "name": "N,N-Bis(2-hydroxyethyl)perfluorobutanesulfonamide", "mp (°C)": "77.8"}
{"smiles": "O=C(O)c1ccc(CSc2ccccc2)cc1", "name": "4-(Phenylsulfanylmethyl)benzoic Acid", "mp (°C)": "180"}
{"smiles": "Brc1cccc(-c2nnco2)c1", "name": "2-(3-bromophenyl)-1,3,4-oxadiazole", "mp (°C)": "75"}
{"smiles": "O=C(CC(=O)Nc1cc(Cl)ccc1Cl)Nc1cc(Cl)ccc1Cl", "name": "N~1~,N~3~-Bis(2,5-dichlorophenyl)propanediamide", "mp (°C)": "227"}
{"smiles": "CCCCCCCCCCCCCCCC(=O)OCCO", "name": "hexadecanoic acid, 2-hydroxyethyl ester", "mp (°C)": "59.45"}
{"smiles": "CC(C)COC(=O)n1c(-c2cscn2)nc2ccccc21", "mp (°C)": "72.5"}
{"smiles": "O=C(CCl)NC1CCOc2ccccc21", "stereo": "stereo not drawn", "name": "2-chloro-N-3,4-dihydro-2H-chromen-4-ylacetamide", "mp (°C)": "87"}
{"smiles": "CCOC(=O)[C@@H]1[C@@H](C(C)C)[C@@H]2C=C[C@H]1C2", "mp (°C)": "-19.15"}
{"smiles": "CCC[C@H]1CC[C@H]([C@H]2CO[C@H](c3cc(F)c(C(F)(F)Oc4cc(F)c(F)c(F)c4)c(F)c3)OC2)CC1", "mp (°C)": "82.3"}

A selection of 4 entries from above:

{"smiles": "CN1CCN(CCC(=O)NN)CC1", "name": "3-(4-methylpiperazin-1-yl)propanehydrazide", "mp (°C)": "88"}
{"smiles": "COC(=O)c1ccc(I)cc1S(=O)(=O)[N-]C(=O)Nc1nc(C)nc(OC)n1.[Na+]", "name": "Iodosulfuron methyl ester sodium salt", "mp (°C)": "150"}
{"smiles": "CC1(C)CC(NC(=O)c2cccc(C(=O)NC3CC(C)(C)NC(C)(C)C3)c2)CC(C)(C)N1", "name": "N,N'-Bis(2,2,6,6-tetramethyl-4-piperidyl)isophthalamide", "mp (°C)": "275.5"}
{"smiles": "COc1ccc(CC2CC2)cc1", "name": "1-(Cyclopropylmethyl)-4-methoxybenzene", "mp (°C)": "-23.15"}

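The numbers are reported measurements, compiled and curated for the OPERA QSAR suite. A listed value is a point estimate from one report or more. How each value was measured is not recorded, so precision varies. The measured form (salt, isomer or mixture) is not always the one drawn. Some entries may be limits or estimates that an upstream database listed as plain numbers.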